Values quoted from earlier work in patent US20210093730A1, “BIOMARKERS FOR ANTIBODY-DRUG CONJUGATE MONOTHERAPY OR COMBINATION THERAPY” (Immunomedics, Inc., priority 2019, published 2021).
Like-named read-outs stand apart in the source and are kept apart here.

System: metastatic colorectal cancer (mCRC)
Conditions: cited from earlier work
[1] = patients with RAS/BRAF mutations in ctDNA

## cetuximab: anti-EGFR antibody
[1]
  overall survival: 3.1 months
  progression-free survival: 1.8 months
Patients without mutations
  overall survival: 9.4 months
  progression-free survival: 4.9 months
